Assay results as given in PMC9027131, “Dual PI3K/Akt Inhibitors Bearing Coumarin-Thiazolidine Pharmacophores as Potential Apoptosis Inducers in MCF-7 Cells” (Pharmaceuticals, 2022).

Chains of the proteins cited; added tags and fusions are not shown. Lines headed by an entry give the natural chain unless they say otherwise; changes in a name come on top.
UniProt P48736: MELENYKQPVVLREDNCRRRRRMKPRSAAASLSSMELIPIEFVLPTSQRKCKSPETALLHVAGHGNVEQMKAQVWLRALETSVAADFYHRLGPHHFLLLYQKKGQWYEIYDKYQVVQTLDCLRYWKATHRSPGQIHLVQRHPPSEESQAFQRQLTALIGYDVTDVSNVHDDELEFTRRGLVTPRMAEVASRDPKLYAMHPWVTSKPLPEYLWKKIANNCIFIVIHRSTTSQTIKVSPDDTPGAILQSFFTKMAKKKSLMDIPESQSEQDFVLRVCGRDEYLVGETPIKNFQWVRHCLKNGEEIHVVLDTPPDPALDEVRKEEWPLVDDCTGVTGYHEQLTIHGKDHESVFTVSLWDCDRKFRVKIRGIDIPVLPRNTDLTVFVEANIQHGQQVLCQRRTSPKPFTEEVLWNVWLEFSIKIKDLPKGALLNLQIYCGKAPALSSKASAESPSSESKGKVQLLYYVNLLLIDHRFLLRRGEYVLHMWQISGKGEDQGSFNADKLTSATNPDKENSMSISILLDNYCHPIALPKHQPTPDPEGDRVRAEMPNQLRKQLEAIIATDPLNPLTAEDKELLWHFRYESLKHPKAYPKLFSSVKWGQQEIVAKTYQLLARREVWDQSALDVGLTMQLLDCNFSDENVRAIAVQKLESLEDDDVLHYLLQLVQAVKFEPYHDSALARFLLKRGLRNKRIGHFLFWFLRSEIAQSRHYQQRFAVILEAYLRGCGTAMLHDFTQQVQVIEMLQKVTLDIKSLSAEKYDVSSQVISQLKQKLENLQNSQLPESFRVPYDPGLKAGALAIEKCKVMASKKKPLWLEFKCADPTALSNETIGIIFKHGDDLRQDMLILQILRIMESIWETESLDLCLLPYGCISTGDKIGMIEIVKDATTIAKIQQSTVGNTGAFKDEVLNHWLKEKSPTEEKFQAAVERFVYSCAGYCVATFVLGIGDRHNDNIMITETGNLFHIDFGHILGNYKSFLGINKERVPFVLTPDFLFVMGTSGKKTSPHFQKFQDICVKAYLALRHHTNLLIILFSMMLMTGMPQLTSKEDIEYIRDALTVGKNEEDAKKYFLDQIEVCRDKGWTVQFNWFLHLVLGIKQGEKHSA

Molecular target: T1, PI3K-γ (Homo sapiens, UniProt P48736)
T1 construct: purchased BPS Bioscience, Inc 79803
Experiment: PI3Kγ (p110γ/PIK3R5) enzyme inhibition assay kit
Assay type: biochemical
Settings: means ± sd, n = 3; read-out: IC50 (µM) PI3K-γ Isoform
Description: Accumulating evidence highlighted that PI3K signaling pathway upregulation is highly implicated in breast cancer development and disease progression as well as resistance to hormones and cytotoxic therapy. Therefore, it is essential to elucidate the effect of the novel compound, VIIb, on the PI3K/Akt signaling pathway by using in vitro PI3K class 1A enzyme inhibition assay conducted on PI3K-α and PI3K-γ isoforms as well as an Akt-1 enzyme inhibition assay. […] Furthermore, targeting the PI3K-γ isoform in breast cancer could contribute to enhancing the anti-tumor immunity.
The in vitro inhibition of PI3K and Akt kinase activities by VIIb was assessed using a PI3Kα (p110α/p85) assay kit (Catalog #79781; BPS Bioscience, Inc, San Diego, CA, USA), PI3Kγ (p110γ/PIK3R5) assay kit (Catalog #79803; BPS Bioscience, Inc, San Diego, CA, USA), and Akt Kinase Activity assay kit (ab139436; Abcam, Cambridge, UK) following the manufacturer’s instructions as described previously. The results were expressed as IC50 values using dose–response curves and linear regression equations. LY294002 compound was taken as the reference compound. The values were means ± sd; n = 3.

## O=c1cc(N2CCOCC2)oc2c(-c3ccccc3)cccc12 [LY294002, reference compound]
  IC50: 11.5 ± 0.62 µM
